Values quoted from earlier work as cited in patent publication US20050042293A1, “Polymeric systems for drug delivery and uses thereof” (The University of British Columbia, priority 1997, published 2005).

Settings: water from pH 4.5 to 7.0; cited from earlier work

## Human insulin
  solubility in water (in words): practically insoluble in water
